This note sets out measurements from publication PMC10747599 (Viruses, 2023).

For the test, the system named is SLEV. The test is described as follows: Viral load by plaque-forming assay, SLEV-infected Vero CCL81. The test is classed as cell-based, St. Louis encephalitis virus (SLEV BeH 355964). As to conditions: 20 µM, Vero CCL81, MOI 0.1.

In the case of `CCCCc1oc2ccccc2c1C(=O)c1cc(I)c(OCCN(CC)CC)c(I)c1` [Amiodarone], the “reduction in viral load relative to vehicle-treated controls” value is “approximately 10 fold”.
